Laboratory results published in patent US20030055065A1, “Tricyclic amide and urea compounds useful for inhibition of G-protein function and for treatment of proliferative diseases” (priority 1993, published 2003).

Chains of the proteins cited; added tags and fusions are not shown.
UniProt Q02293, whole entry: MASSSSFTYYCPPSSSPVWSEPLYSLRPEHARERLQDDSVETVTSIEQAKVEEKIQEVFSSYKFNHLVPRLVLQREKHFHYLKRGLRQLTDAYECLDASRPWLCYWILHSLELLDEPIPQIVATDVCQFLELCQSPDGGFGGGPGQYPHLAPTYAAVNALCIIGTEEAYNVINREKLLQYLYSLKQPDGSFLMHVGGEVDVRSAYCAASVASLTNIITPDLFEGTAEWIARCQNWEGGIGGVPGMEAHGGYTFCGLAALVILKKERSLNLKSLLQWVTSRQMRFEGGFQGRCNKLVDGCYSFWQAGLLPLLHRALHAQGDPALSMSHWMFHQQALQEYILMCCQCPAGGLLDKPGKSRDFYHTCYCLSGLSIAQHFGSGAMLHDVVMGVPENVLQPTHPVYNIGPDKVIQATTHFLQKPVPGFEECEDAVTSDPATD

Assays:
[1] = test system: Ras-CVLS processing in COS monkey kidney cells; test: COS cell assay: Ras-CVLS processing (Western blot); format: cell-based; conditions: Primates, read-out: Inhibition of Ras Processing IC50
Procedure: 2. […] Effect of farnesyl protein transferase inhibitors on Ras processing and on disordered cell growth induced by transforming Ras. COS monkey kidney cells were transfected by electroporation with the plasmid pSV-SPORT (Gibco/BRL) containing a cDNA insert encoding either Ras-CVLS or Ras-CVLL, leading to transient overexpression of a Ras substrate for either farnesyl protein transferase or geranylgeranyl protein transferase I, respectively (see above). […] After 24 hours, media was removed and fresh media containing the appropriate drugs was re-added. 48 hours after electroporation cells were examined under the microscope to monitor disordered cell growth induced by transforming Ras. Cells expressing transforming Ras become more rounded and refractile and overgrow the monolayer, reminiscent of the transformed phenotype. […] Cells were lysed by homogenization and cell debris was removed by centrifugation at 2000×g for 10 min. Cellular protein was precipitated by addition of ice-cold trichloroacetic acid and redissolved in 100 μl of SDS-electrophoresis sample buffer. […] Proteins resolved on the gels were electroblotted onto nitrocellulose membranes for immunodetection. […] E., et al., (1982), Monoclonal antibodies to the p21 products of the transforming gene of Harvey murine sarcome virus and of the cellular ras gene family, J. Virol. 43: 294-304), in PBS containing 1% fetal calf serum for one hour at room temperature. After washing, membranes were incubated for one hour at room temperature with a 1:5000 dilution of secondary antibody, rabbit anti-rat IgG conjugated to horseradish peroxidase, in PBS containing 1% fetal calf serum.

[2] = target: T1, farnesyl protein transferase (FPT), partially purified from rat brain (Rattus norvegicus, UniProt Q02293+Q04631); test: Inhibition of farnesyl protein transferase (transfer of [3H]farnesyl to Ras-CVLS); format: biochemical
T1 construct: were partially purified from rat brain by ammonium sulfate fractionation followed by Q-Sepharose
Procedure: 1. In vitro enzyme assays: Inhibition of farnesyl protein transferase and geranylgeranyl protein transferase.
Human farnesyl protein transferase was also expressed in E. coli, using cDNA clones encoding both the α and β subunits. […] Human farnesyl protein transferase was partially-purified from the soluble protein fraction of E. coli as described above. […] Two forms of val^12-Ha-Ras protein were prepared as substrates for these enzymes, differing in their carboxy terminal sequence. One form terminated in cysteine-valine-leucine-serine (Ras-CVLS) the other in cystein-valine-leucine-leucine (Ras-CVLL). Ras-CVLS is a substrate for the farnesyl protein transferase while Ras-CVLL is a substrate for geranylgeranyl protein transferase I. The cDNAs encoding these proteins were constructed so that the proteins contain an amino-terminal extension of 6 histidine residues. Both proteins were expressed in Escherichia coli and purified using metal chelate affinity chromatography. The radiolabelled isoprenyl pyrophosphate substrates, [^3H]farnesyl pyrophosphate and [3H]geranylgeranyl pyrophosphate, were purchased from DuPont/New England Nuclear.
The reaction was allowed to proceed for 30 minutes at room temperature and then stopped with 0.5 ml of 4% sodium dodecyl sulfate (SDS) followed by 0.5 ml of cold 30% trichloracetic acid (TCA). Samples were allowed to sit on ice for 45 minutes and precipitated Ras protein was then collected on GF/C filter paper mats using a Brandel cell harvester. […] Percent inhibition was calculated relative to the DMSO vehicle control.

[3] = Ras-CVLS farnesylation, partially purified rat brain FPT

SMILES	IC50 [1] [µM]	IC50 [2, 3] [µM]	IC50 ([2]; enzyme inhibition) [µM]
O=C(CN1C(=O)c2ccccc2C1=O)N1CCN(C2c3ccc(Cl)cc3CCc3cccnc32)CC1 (stereo not shown) [Example 76]	39.9	–	–
O=C(Cc1ccc[n+]([O-])c1)N1CCN(C2c3ccc(Cl)cc3CCc3cccnc32)CC1 (stereo not shown) [Example 197]	11.1	–	–
O=C(Cc1ccc(Br)cc1)N1CCN(C2c3ccc(Cl)cc3CCc3cccnc32)CC1 (stereo not shown) [Example 77]	–	2.04	2.04
CCOC(=O)N1CCC(C(=O)N2CCN(C3c4ccc(Cl)cc4CCc4cccnc43)CC2)CC1 (stereo not shown) [Example 317]	–	13.3	–
O=C(Nc1ccncc1)N1CCN(C2c3ccc(Cl)cc3CCc3cccnc32)CC1 (stereo not shown) [183 (6.5)]	10.5	–	–
O=C(Cc1cccnc1)N1CCN(C2c3ccc(Cl)cc3CCc3ccc[n+]([O-])c32)CC1 (stereo not shown) [184 (5.60)]	11.5	–	–
